The numbers were not newly measured in patent publication US20240024490A1, which cites them from elsewhere.

Amino acid sequences for entries named in this document (tags omitted).
UniProt O14965, whole entry: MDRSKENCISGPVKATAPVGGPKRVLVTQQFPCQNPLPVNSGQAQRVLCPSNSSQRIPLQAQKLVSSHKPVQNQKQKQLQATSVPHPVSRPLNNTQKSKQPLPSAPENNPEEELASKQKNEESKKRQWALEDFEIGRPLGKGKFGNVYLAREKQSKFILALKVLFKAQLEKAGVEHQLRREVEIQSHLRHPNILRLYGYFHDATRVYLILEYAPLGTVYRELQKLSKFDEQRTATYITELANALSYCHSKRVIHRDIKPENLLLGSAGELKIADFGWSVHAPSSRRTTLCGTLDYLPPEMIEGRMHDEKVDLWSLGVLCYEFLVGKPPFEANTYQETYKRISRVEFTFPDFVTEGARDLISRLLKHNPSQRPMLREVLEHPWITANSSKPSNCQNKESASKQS
UniProt P31749, whole entry: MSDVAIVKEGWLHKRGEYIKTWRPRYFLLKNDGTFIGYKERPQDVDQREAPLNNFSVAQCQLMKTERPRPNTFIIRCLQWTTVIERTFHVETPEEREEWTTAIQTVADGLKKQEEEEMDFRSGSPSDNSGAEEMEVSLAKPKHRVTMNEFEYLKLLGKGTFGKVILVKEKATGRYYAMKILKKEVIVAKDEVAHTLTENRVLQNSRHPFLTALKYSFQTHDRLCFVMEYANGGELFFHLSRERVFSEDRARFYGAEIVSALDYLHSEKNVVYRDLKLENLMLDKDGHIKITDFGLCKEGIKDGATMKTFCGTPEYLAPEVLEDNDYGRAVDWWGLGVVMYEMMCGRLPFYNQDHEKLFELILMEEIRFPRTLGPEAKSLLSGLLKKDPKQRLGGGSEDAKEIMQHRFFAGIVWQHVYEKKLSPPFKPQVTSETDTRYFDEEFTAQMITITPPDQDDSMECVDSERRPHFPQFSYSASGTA
UniProt O15530, whole entry: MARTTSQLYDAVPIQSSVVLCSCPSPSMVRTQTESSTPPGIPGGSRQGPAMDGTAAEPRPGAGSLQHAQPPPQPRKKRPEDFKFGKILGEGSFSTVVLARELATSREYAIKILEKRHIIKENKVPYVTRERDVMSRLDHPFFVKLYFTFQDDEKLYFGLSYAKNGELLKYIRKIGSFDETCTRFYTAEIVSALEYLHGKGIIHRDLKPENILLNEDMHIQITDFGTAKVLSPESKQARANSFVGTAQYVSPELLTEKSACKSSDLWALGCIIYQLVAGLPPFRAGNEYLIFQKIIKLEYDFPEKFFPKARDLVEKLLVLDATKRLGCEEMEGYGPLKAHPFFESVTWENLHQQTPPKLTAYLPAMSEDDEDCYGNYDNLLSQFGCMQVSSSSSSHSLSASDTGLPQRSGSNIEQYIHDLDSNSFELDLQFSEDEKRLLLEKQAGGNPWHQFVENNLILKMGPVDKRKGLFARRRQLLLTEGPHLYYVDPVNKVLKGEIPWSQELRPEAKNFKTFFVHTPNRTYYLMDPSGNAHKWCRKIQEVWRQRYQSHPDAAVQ

The target of one data set is Aurora A (Homo sapiens, UniProt O14965). As to conditions: cited from earlier work.
The target of the next data set is AKT1 (Homo sapiens, UniProt P31749). Conditions: read-out: Akt1 IC50; cited from earlier work.
The next data set addresses PDK1 (Homo sapiens, UniProt O15530). Conditions: cited from earlier work.

As for `O=C(O)c1cc(-c2cccc(F)c2)nc2ccc(Br)cc12`, the IC50 at Aurora A (read-out: Average IC50) is above 500 µM. For the same compound, the Ki at Aurora A (read-out: Calculated Ki) was above 100 µM.

Consider `O=C(O)/C=C(\CCc1cccc(Cl)c1)c1ccccc1`, for which the IC50 at AKT1 is above 300 µM. In addition, the AC50 at PDK1 is 9.5 n.e.
